Columns and labels:
Mu-type opioid receptor = Mu-type opioid receptor (Homo sapiens, UniProt P35372); assay: Percent inhibition against human Opioid receptor mu 1 using [3H]diprenorphine as radio ligand; parameters: concentration or dose not given beside the values; settings: concentration not given here
[1] = target: Delta-type opioid receptor (Homo sapiens, UniProt P41143); assay: Percent inhibition against human Opioid receptor delta 1 using [3H]diprenorphine as radio ligand; settings: concentration not given here

Sequences of proteins named here, by UniProt entry; tags and fusion partners are left off.
UniProt P35372, whole entry, looked up: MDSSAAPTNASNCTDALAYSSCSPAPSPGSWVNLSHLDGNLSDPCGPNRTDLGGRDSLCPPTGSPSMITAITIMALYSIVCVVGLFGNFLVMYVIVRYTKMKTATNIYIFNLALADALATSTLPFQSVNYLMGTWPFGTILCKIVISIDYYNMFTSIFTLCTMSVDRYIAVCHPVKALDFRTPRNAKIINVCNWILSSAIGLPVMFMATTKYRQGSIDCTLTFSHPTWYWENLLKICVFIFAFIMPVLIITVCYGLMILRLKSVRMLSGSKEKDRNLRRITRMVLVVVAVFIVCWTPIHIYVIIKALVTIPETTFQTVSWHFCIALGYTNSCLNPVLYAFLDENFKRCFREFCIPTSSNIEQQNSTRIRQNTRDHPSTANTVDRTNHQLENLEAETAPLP
UniProt P41143, whole entry, looked up: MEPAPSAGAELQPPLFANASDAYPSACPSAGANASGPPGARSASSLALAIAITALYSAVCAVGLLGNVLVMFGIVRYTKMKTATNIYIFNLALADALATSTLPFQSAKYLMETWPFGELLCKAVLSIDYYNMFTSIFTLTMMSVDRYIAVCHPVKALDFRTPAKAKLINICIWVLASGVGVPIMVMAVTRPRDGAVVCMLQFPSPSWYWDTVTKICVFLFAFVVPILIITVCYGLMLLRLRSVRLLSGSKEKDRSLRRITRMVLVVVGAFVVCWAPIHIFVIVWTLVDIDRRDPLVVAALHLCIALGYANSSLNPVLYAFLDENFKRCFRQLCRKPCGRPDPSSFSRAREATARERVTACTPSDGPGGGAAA

## CN(C(=O)Cc1ccccc1)[C@H](CN1CCCC1)c1ccccc1
Mu-type opioid receptor
  inhibition: 25%
[1]
  inhibition: 31%

— ChEMBL document CHEMBL1145259, “Arylacetamide kappa opioid receptor agonists with reduced cytochrome P450 2D6 inhibitory activity” (Bioorg Med Chem Lett, 2005)
